Target: Adenosine receptor A3 (Homo sapiens, UniProt P0DMS8)
Assay: Displacement of [3H]MRE3008-F20 from human adenosine A3 receptor expressed in CHO cells after 120 mins
Assay type: cell-based

Sequences of proteins named here, by UniProt entry; tags and fusion partners are left off.
UniProt P0DMS8, whole entry: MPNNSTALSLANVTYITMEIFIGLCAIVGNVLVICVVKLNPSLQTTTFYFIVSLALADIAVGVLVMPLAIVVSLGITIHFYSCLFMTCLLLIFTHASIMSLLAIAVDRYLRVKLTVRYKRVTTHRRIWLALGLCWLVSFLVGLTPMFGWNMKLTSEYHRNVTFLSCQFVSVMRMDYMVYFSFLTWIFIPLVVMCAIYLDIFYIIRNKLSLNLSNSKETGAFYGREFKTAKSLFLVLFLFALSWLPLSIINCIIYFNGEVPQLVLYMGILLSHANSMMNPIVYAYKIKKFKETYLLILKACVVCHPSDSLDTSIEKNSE

Structure (SMILES): CCCn1cc2c(nc(NC(=O)Nc3ccc(OC)cc3)n3nc(-c4ccco4)nc23)n1
- Ki: 0.603 nM
